The values that follow are results of earlier work, collected in patent US20220194914A1, “METHODS AND SYSTEMS FOR PRODUCTION OF FURFURAL” (SHELL OIL COMPANY, priority 2020, published 2022).

The conditions of the data set: octanol-water; Table 2 solvents; cited from earlier work.

Turning to `CC(=O)CC(C)C` [methylisobutyl ketone], the LogP is recorded as 1.25.

As usually defined, the LogP is the decadic logarithm of the partition coefficient of the neutral form, usually between octanol and water.
